Values quoted from earlier work as cited in patent US5310762A, “Medicaments” (Burroughs Wellcome Co., priority 1988, dated 1994).

Details: AIDS patients; much higher than usual; Wofsy 1986; cited from earlier work

In the case of trimethoprim-sulphamethoxazole, the “incidence of adverse reactions” value is given as “around 50%”.
